Test results reported in ChEMBL document CHEMBL1143274, “Potent and selective inhibitors of Helicobacter pylori glutamate racemase (MurI): pyridodiazepine amines” (Bioorg Med Chem Lett, 2009).

Target: T1, Glutamate racemase (Helicobacter pylori J99, UniProt Q9ZLT0)
T1 sequence (Q9ZLT0 whole entry): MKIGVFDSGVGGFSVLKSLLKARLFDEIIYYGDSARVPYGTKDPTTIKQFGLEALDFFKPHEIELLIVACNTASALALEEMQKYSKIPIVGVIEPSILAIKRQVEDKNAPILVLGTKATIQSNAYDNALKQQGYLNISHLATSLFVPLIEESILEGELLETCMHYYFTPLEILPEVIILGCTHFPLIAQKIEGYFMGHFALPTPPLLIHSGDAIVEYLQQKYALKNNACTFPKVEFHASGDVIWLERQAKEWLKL
Assay: Inhibition of MurI in wild type Helicobacter pylori J99

With `OC1CN(C2=Nc3ccccc3C(c3ccccc3)=NC2c2cccs2)C1` (stereo unspecified) as the molecule, how does the IC50 read?
Its IC50 is 0.5 µM.
